One compound from patent US9999596B2 (priority 2004, dated 2018) can be followed below.

For data set [1], the system named is A2780/AD (multidrug resistant) human ovarian carcinoma cells. The class given is cell-based.
The conditions of data set [2]: female, Fischer 344, rat, in vivo.

Like-named read-outs stand apart in the source and are kept apart here.

Turning to `CC[C@@]1(O)C(=O)OCc2c1cc1n(c2=O)Cc2cc3c(CN(C)C)c(O)ccc3nc2-1` [TPT, 9-amino-dimethyl-10-hydroxycamptothecin], in data set [1], the “Resistance Ratio” value turned out to be 2.21. In addition, in data set [2] (iv), the “A/alpha (relative area of the distribution phase)” value was determined as 4421.42 and the “B/beta (relative area of the elimination phase)” value was 1284.06. In data set [2] (iv, 10 mg/kg), the A stood at 3730.35 ng/mL, the B was 146.05 ng/mL, the Beta/kel amounted to 0.11 h⁻¹ and the V is 1790.14 mL. Moreover, in data set [2] (sc, 10 mg/kg), the Beta/kel amounted to 0.12 h⁻¹, the Ka turned out to be 2.31 h⁻¹ and the V was determined as 6601.83 mL.
